Where “and” joins values, the source holds several entries; their conditions need not be identical. Equal values may be shown once.
Legend:
[1] = In vitro enzyme kinetics of PMDsc variants (pyruvate kinase/lactate dehydrogenase coupled assay); type: biochemical; settings: for Ki: MVAP up to 100 mM, read-out: KI (substrate inhibition); for kobs: observed turnover number calculated at 100 mM MVAP
E. coli DH1 [2] = assay: Isopentenol production in E. coli via IPP-bypass MVA pathway (GC-FID); type: cell-based, Escherichia coli; settings: for isopentenol titer: 48 hours after induction
E. coli DH1 [3] = assay: Growth of E. coli DH1 under the screening conditions (MEP pathway blocked by fosmidomycin, IPP-bypass pathway + IPK)
[4] = Table 2, MVAP 0.100-4.0 mM, standard error in brackets
[5] = Table 2, MVAP, standard error in brackets
[6] = Table 2, screening conditions, standard deviation in brackets

| Molecule | Ki [1] | kcat [1, 4] | Km [1, 5] | Km ([1]; Table 3) | kcat ([1]; Table 3) | kobs ([1]; Table 3) | isopentenol titer (E. coli DH1 [2]; listed as R74H-M212Q-R147K) | 48 hr Titer (isopentenol) (E. coli DH1 [2]) | isopentenol titer (E. coli DH1 [2]; text and figure legends) | Growth rate (E. coli DH1 [3]; [6]) | Growth rate (E. coli DH1 [3]; Table 3) | isopentenol titer after 48 hours, fold less than that of R74H-R147K-M212Q (E. coli DH1 [2]; 48 hours) |
| --- | --- | --- | --- | --- | --- | --- | --- | --- | --- | --- | --- | --- |
| R74H-R147K-M212Q: PMDsc triple mutant (protein) MTVYTASVTAPVNIATLKYWGKRDTKLNLPTNSSISVTLSQDDLRTLTSAATAPEFERDTLWLNGEPHSIDNEHTQNCLRDLRQLRKEMESKDASLPTLSQWKLHIVSENNFPTAAGLASSAAGFAALVSAIAKLYQLPQSTSEISKIARKGSGSACRSLFGGYVAWEMGKAEDGHDSMAVQIADSSDWPQMKACVLVVSDIKKDVSSTQGQQLTVATSELFKERIEHVVPKRFEVMRKAIVEKDFATFAKETMMDSNSFHATCLDSFPPIFYMNDTSKRIISWCHTINQFYGETIVAYTFDAGPNAVLYYLAENESKLFAFIYKLFGSVPGWDKKFTTEQLEAFNHQFESSNFTARELDLELQKDVARVILTQVGSGPQETNESLIDAKTGLPKE | 80 mM | 0.16 (0.02) sec^−1 | 400 µM | 430 µM | 0.16 s⁻¹ | 0.07 s⁻¹ | 1079.1 mg/L | 1079 (27) mg/L and 1079 mg/L | 1,080±30 mg/L and 1,079 mg/L | 0.79 (0.03) hr^−1 | 0.79 h⁻¹ | – |
| R74G-R147K-M212Q: PMDsc triple mutant (protein) MTVYTASVTAPVNIATLKYWGKRDTKLNLPTNSSISVTLSQDDLRTLTSAATAPEFERDTLWLNGEPHSIDNEGTQNCLRDLRQLRKEMESKDASLPTLSQWKLHIVSENNFPTAAGLASSAAGFAALVSAIAKLYQLPQSTSEISKIARKGSGSACRSLFGGYVAWEMGKAEDGHDSMAVQIADSSDWPQMKACVLVVSDIKKDVSSTQGQQLTVATSELFKERIEHVVPKRFEVMRKAIVEKDFATFAKETMMDSNSFHATCLDSFPPIFYMNDTSKRIISWCHTINQFYGETIVAYTFDAGPNAVLYYLAENESKLFAFIYKLFGSVPGWDKKFTTEQLEAFNHQFESSNFTARELDLELQKDVARVILTQVGSGPQETNESLIDAKTGLPKE | 11 mM | 0.22 (0.04) sec^−1 | 500 µM | 500 µM | 0.22 s⁻¹ | 0.022 s⁻¹ | – | 8 (1) mg/L and 8 mg/L | 8 ± 1 mg/L | – | – | 135 fold |
| I226V: PMDsc mutant I226V (protein) MTVYTASVTAPVNIATLKYWGKRDTKLNLPTNSSISVTLSQDDLRTLTSAATAPEFERDTLWLNGEPHSIDNERTQNCLRDLRQLRKEMESKDASLPTLSQWKLHIVSENNFPTAAGLASSAAGFAALVSAIAKLYQLPQSTSEISRIARKGSGSACRSLFGGYVAWEMGKAEDGHDSMAVQIADSSDWPQMKACVLVVSDIKKDVSSTQGMQLTVATSELFKERVEHVVPKRFEVMRKAIVEKDFATFAKETMMDSNSFHATCLDSFPPIFYMNDTSKRIISWCHTINQFYGETIVAYTFDAGPNAVLYYLAENESKLFAFIYKLFGSVPGWDKKFTTEQLEAFNHQFESSNFTARELDLELQKDVARVILTQVGSGPQETNESLIDAKTGLPKE | – | 0.16 (0.01) sec^−1 | 340 µM | – | – | – | – | 633 (53) mg/L | – | 0.35 (0.01) hr^−1 | – | – |
